For one compound, Kd and IC50 results are on record in publication PMC12114633, “α-Glucosidase Inhibition Mechanism and Anti-Hyperglycemic Effects of Flavonoids from Astragali Radix and Their Mixture Effects” (Pharmaceuticals, 2025).

Protein sequences, listed by entry. Tags and fused reporters are not part of them. Lines headed by an entry give the natural chain unless they say otherwise; changes in a name come on top.
UniProt P53341: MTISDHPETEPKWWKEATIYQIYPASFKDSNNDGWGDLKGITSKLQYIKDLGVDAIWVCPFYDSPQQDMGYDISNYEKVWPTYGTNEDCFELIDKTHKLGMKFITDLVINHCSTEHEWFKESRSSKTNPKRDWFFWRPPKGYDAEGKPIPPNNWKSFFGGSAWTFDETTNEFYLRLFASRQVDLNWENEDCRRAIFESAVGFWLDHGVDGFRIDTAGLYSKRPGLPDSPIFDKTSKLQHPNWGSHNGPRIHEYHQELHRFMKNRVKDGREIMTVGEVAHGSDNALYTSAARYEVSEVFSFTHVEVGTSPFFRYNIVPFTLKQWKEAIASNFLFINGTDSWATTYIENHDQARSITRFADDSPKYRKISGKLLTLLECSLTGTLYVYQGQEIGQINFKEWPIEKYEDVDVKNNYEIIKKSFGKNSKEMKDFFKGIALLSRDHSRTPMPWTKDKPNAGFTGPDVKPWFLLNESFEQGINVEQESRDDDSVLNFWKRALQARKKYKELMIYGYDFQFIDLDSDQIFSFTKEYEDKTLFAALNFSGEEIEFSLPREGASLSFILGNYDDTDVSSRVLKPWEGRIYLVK

One assay concerns the target T1, α-glucosidase (Saccharomyces cerevisiae, UniProt P53341).
T1 construct: purchased Shanghai Yuanye Biotechnology Co., Shanghai, China Lot No. M23HS178879 (catalogue number not given)
Kind of assay: biochemical. The assay is classed as binding. The method, then: SPR analysis was performed using the Biacore 8K system (GE Healthcare, Uppsala, Sweden). α-Glucosidase (0.05 mg/mL) was fixed on the CM5 sensor chip by an amine coupling kit. Subsequently, various concentrations of the 16 flavonoids dissolved in 5% DMSO were continuously injected onto the surface of α-glucosidase coated surface. After each sample injection, the sensor chip surface was washed and regenerated with running buffer (PBS) at a flow rate of 30 µL/min. According to the 1:1 Langmuir model, the equilibrium dissociation constant (KD) was calculated by the Biacore evaluation software. For sensorgrams without significant kinetic features, the KD values were calculated using the steady-state analysis.

Assay [1] addresses T2, Saccharomyces cerevisiae α-glucosidase (Saccharomyces cerevisiae, UniProt P53341).
T2 construct: purchased Shanghai Yuanye Biotechnology Co., Shanghai, China Lot No. M23HS178879 (catalogue number not given)
Kind of assay: biochemical. The note with it: IC50, α-glucosidase 0.2 U/mL, 5 mM pNPG, PBS pH 6.8, 37 °C. The procedure:
The α-glucosidase inhibitory effects of flavonoids were evaluated as in a previous report with slight modifications (including changes in the concentrations of the enzyme, substrate, and Na2CO3). Briefly, 50 μL of phosphate-buffered saline (PBS, 0.1 M, pH 6.8), the test compound, and α-glucosidase (0.2 U/mL) were preincubated in a 96-well plate at 37 °C for 10 min. The reaction was then initiated by adding 50 μL of 5 mM pNPG as the substrate. Subsequently, the 96-well plate was incubated for an additional 30 min at 37 °C, then 50 μL of 0.2 M Na2CO3 was added to terminate the reaction. Absorbance was measured at under 405 nm.

The Kd is the equilibrium constant for the complex coming apart. Higher therefore signals a looser complex. As a reminder, the IC50 is the concentration that inhibits the measured activity by half. A low value points to inhibition by little substance.

In turn, `O=C1C[C@@H](c2ccc(O)cc2)Oc2cc(O)cc(O)c21` [C5, naringenin] showed a Kd on α-glucosidase of 294 µM. Moreover, the midpoint of inhibition in assay [1], the IC50, lay at 226 ± 36.1 µM.
